The text below walks through data of patent publication US6897199B2, “Pharmaceutically acceptable salts of phenoxazine and phenothiazine compounds” (Dr. Reddy's Laboratories Ltd., priority 2001, dated 2005).

The target in the test is T1, hPPARα (Homo sapiens, UniProt Q07869).
T1 sequence (Q07869 239-466 limits assumed): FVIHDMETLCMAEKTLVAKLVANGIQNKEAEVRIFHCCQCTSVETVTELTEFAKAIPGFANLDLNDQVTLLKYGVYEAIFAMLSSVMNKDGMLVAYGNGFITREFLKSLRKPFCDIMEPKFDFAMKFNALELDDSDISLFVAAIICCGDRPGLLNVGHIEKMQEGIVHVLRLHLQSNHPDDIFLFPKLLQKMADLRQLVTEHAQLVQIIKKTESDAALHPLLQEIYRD
Particulars: compound concentration 50 μM; luciferase activity, HEK-293 cells.

The structures appear in SMILES notation. Counter-ions that a name gives are not always drawn.

With `CCOC(Cc1ccc(OCCN2c3ccccc3Oc3ccccc32)cc1)C(=O)O.c1c[nH]cn1` (single isomer, unassigned; (-)) [Example 1, (−)-3-[4-[2-(Phenoxazin-10-yl)ethoxy]phenyl]-2-ethoxypropanoic acid imidazole salt], the PPARα is listed as 4.5.
`CCO[C@@H](Cc1ccc(OCCN2c3ccccc3Oc3ccccc32)cc1)C(=O)O` [Example 2, (−)-Di 3-[4-[2-(Phenoxazin-10-yl)ethoxy]phenyl]-2-ethoxypropanoic acid Piperazine salt] came in with a PPARα of 4.0.
`CCO[C@@H](Cc1ccc(OCCN2c3ccccc3Oc3ccccc32)cc1)C(=O)O` [Example 5, (−)-3-[4-[2-(Phenoxazin-10-yl)ethoxy]phenyl]-2-ethoxypropanoic acid pyrrolidine salt]: the PPARα amounted to 4.3.
`CCO[C@@H](Cc1ccc(OCCN2c3ccccc3Oc3ccccc32)cc1)C(=O)O` [Example 7, (−)-3-[4-[2-(Phenoxazin-10-yl)ethoxy]phenyl]-2-ethoxypropanoic acid 1-phenyl ethyl amine salt] gave a PPARα of 3.43.
As to `CCO[C@@H](Cc1ccc(OCCN2c3ccccc3Oc3ccccc32)cc1)C(=O)O` [Example 9, (−)-3-[4-[2-(Phenoxazin-10-yl)ethoxy]phenyl]-2-ethoxypropanoic acid phenylalanine benzyl ester salt], the PPARα is given as 4.2.
